In ChEMBL document CHEMBL4152197, “Proteolysis Targeting Chimeras (PROTACs) of Anaplastic Lymphoma Kinase (ALK)” (Eur J Med Chem, 2018):

Tested on: SU-DHL-1
Experiment: Growth inhibition of human SU-DHL1 cells after 3 days by luminescence-based CellTiter-Glo assay
Assay type: functional, cell-based

How did the “growth inhibition (GI)” value turn out when `Cc1cc(Nc2ncc(Cl)c(Nc3ccccc3S(=O)(=O)C(C)C)n2)c(OC(C)C)cc1C1CCN(CC(=O)NCCNc2cccc3c2C(=O)N(C2CCC(=O)NC2=O)C3=O)CC1` (configuration not stated) was run?
Its value is “Dose-dependent effect”.

With `Cc1cc(Nc2ncc(Cl)c(Nc3ccccc3S(=O)(=O)C(C)C)n2)c(OC(C)C)cc1C1CCN(CC(=O)NCCOCCOCCOCCOCCOCCNc2cccc3c2C(=O)N(C2CCC(=O)NC2=O)C3=O)CC1` (configuration not stated) as the molecule, how does the “growth inhibition (GI)” value read?
Its value is “Dose-dependent effect”.
